Patent US5760092A, “Allocolchinones and uses thereof” (Brandeis University, priority 1996, dated 1998)

Key:
[1] = tested on: COLO 205 colon cancer cells; settings: from LC50
[2] = tested on: NCI-H322M non-small cell lung cancer cells

Compound | selectivity against COLO 205 [1] | GI50 [2] | TGI [2] | Percent Growth ([2]; log10 conc -6.0, 1 µM) | CC50 ([2]; read-out: LC50, human, nci-h322m lung cancer cells)
COc1cc2c(c(OC)c1OC)-c1ccc(C(C)=O)cc1C(NC(C)=O)CC2 (stereo not drawn) | selective |  |  |  | 
CCCC(=O)NC1CCc2cc(OC)c(OC)c(OC)c2-c2ccc(C(C)=O)cc21 (stereo not drawn) | selective | < 0.01 µM | > 100 µM | 50% | > 100 µM
